## AlphaSeq binding of Ab-91 heavy chain variants to a spike HR2 peptide

Reference: Engelhart et al. 2022, doi:10.1038/s41597-022-01779-4. File: FLAb, binding data.

Target: peptide PDVDLGDISGINAS, taken from heptad repeat 2 (HR2) of SARS-CoV-2 spike.

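The starting antibody came from a phage panning campaign against this peptide. AAYL51 was designed without a model: most single CDR substitutions and a random sample of double and triple ones. The scFvs were displayed on barcoded MATa yeast, the peptide on MATalpha yeast. Mating (16 h, 30 °C) was followed by selection of diploids and sequencing of their barcodes. Each replicate has its own calibration line, from reference interactions of the BCL2 family. There are three technical replicates.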

Parent scFv Ab-91: VL joined to VH by a 15-residue (Gly4Ser)3 linker. Changes lie in the heavy chain CDRs alone.
VL: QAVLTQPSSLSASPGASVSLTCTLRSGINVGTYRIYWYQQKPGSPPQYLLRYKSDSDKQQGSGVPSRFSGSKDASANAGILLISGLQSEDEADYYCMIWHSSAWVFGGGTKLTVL
VH: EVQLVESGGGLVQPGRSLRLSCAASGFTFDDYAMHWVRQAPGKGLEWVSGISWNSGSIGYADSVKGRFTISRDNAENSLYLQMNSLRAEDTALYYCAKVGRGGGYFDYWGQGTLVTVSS

Variants are written as CDR1, CDR2 and CDR3 of the heavy chain (limits as in the source). Parent: GFTFDDYAMH, GISWNSGSIGYADSVK, VGRGGGYFDY. Numbers give log10(Kd / nM), so 0 is 1 nM and 3 is 1 µM. Smaller is tighter. A mean of the replicates is given; it leaves out those without a signal. An entry "not detected" has no value in the source: the pair was not observed among the diploids in any replicate. This suggests poor binding but is not conclusive. Empty control strains, which show no peptide, gave a signal in 21% of pairings with library AAYL51; the median was 4.54 and 95% of these signals were weaker than 3.26. No background was subtracted.

CDR-H1 | CDR-H2 | CDR-H3 | mean log10 Kd (nM) | seen in
SFTFDDYAMH | GISFNSGSIGYADSVI | VGRGGGYFDY | not detected | 0/3
HFTFDDYAMH | GIVWNSGSIGYADSGK | VGRGGGYFDY | not detected | 0/3
NFTFDDYAMH | GISINSGSIGYADSVK | VGRGGGYFDY | 2.94 | 2/3
GFTFDDYAMH | GISWNSGSIGYADSVK | VGRGHGYFHR | 1.13 | 3/3
MFTGDDYAMH | GISWNPGSIGYADSVK | VGRGGGYFDY | 4.88 | 1/3
GFTFDDYAMH | GISWNIGSIGYADSVK | VQIGGGYFDY | not detected | 0/3
QFTFDDYAMH | GVSWNSGSFGYADSVK | VGRGGGYFDY | 5.09 | 1/3
GFTFDDYAMH | GISWNSGSIGYADSVK | LGRGGGYFDV | 3.26 | 3/3
GFTFDDYAMH | TILWNSGSRGYADSVK | VGRGGGYFDY | not detected | 0/3
GFTFDKYAMW | GISWNSGSWGYADSVK | VGRGGGYFDY | 3.38 | 1/3
GFTFDDYAMH | GIPWNSGQIGYADNVK | VGRGGGYFDY | not detected | 0/3
GFTFDDYAMH | GISPNSKSIGYADSVK | VGRGGGYFDY | 1.90 | 3/3
GFTFDDYAMH | GISWNSWSIGYADSVK | RGRGPGYFDY | not detected | 0/3
GFTTDDYAMH | GISWNSISNGYADSVK | VGRGGGYFDY | 4.10 | 2/3
GFSFDDNAMH | GISWNSGSIGYADSVS | VGRGGGYFDY | not detected | 0/3
GSTFDDYAMH | GINWNSGSIGYADSVK | VVRGGGYFDY | not detected | 0/3
GFIFDDYAMH | GISWNSGSIGYAPSVK | VGRGIGYFDY | 5.38 | 3/3
IFTFDDYAMH | GISTNSGSIGYADSVK | VGRGGGYFDY | not detected | 0/3
GFTADDYAMY | GISWESGSIGYADSVK | VGRGGGYFDY | 4.67 | 1/3
GFTFGDYAMH | GISWNSGSIGYAYSVF | VGRGGGYFDY | 2.35 | 3/3
GFTFDDYAMH | GISWNSGSIGYLFSVK | VRRGGGYFDY | not detected | 0/3
GFTFFDYAMH | GISWNSGSIGPADSVK | VGRIGGYFDY | not detected | 0/3
GFTFDDYAMH | GHSMNSQSIGYADSVK | VGRGGGYFDY | 3.62 | 2/3
GTTFDDYAMH | GISWNSTSIGYADSVK | VGRGGGYQDY | not detected | 0/3
GFTFDDQAMH | GESCNSGSIGYADSVK | VGRGGGYFDY | 4.20 | 2/3
GFTFDDYAMH | GISWNSGLIGYADSHK | VGRWGGYFDY | 5.93 | 1/3
GFTFDDYAMH | GISWDSGSKGYADSVK | VGRGGGYFDL | 0.06 | 3/3
GFTFDDHAMH | GISWNSGSIGYADVVK | VGRGGKYFDY | 5.18 | 1/3
GFTFDDYAMH | GISYNSGPIGYADSVK | VGRGGGYFDY | 4.53 | 2/3
GFTFDDYASH | GISWNSGSIGYKDSVK | VGRGGGYFDY | not detected | 0/3
GFTFDDYAMH | GISWNSGSIGYADSVK | VGRAMGYFDS | 5.39 | 1/3
GFTFDDYAMH | GISWNSSSIGQADSVK | VGRKGGYFDY | not detected | 0/3
GFTFDDYEMH | GISWNSGSIGYADSVK | VGGGGGYRDY | not detected | 0/3
GFTFDDYAME | GISWNSGSIGYADSVK | VGRGGGYFSY | 4.89 | 1/3
GFTFDGYAMH | GISWNSGSIGYADSVG | VGYGGGYFDY | 5.58 | 2/3
GNTFADYAMH | GISWNSGSIGYADSVK | VGPGGGYFDY | not detected | 0/3
VFTFDDYAMH | GISWNSGSIGYADSCK | VGRGGGYFDY | 5.08 | 3/3
GFTFDDYAMH | GISWNSTSIGYADSVR | VGRGGGYSDY | 5.31 | 2/3
GFTFWDYAMH | WISWNSGSIGYHDSVK | VGRGGGYFDY | not detected | 0/3
CFTFDDYAMH | GISWMSGSIGYADSVY | VGRGGGYFDY | 2.91 | 1/3
GFTFDDYALH | GISWNSGSIGYADSVK | VGRGGGYFDP | not detected | 0/3
GFTFDDYAMH | TISWNSGSTGYADSWK | VGRGGGYFDY | 5.27 | 1/3
DFTFDDYAMH | GISWNSGSIGYAISVK | YGRGGGYFDY | not detected | 0/3
GFTFDDYAMH | GISWGSGSIGYADDVK | VGRGGGYFDY | 3.76 | 2/3
GFTFDAYAME | GIQWNSGSIGYADSVK | VGRGGGYFDY | not detected | 0/3
GFTFDDYAMA | GISDNSGSIGYADSVK | SGRGGGYFDY | 4.24 | 2/3
GFTFDDYAMQ | FISWNSGSIAYADSVK | VGRGGGYFDY | 3.64 | 1/3
GFTFDDYAMH | GISWNSGSIGYADSIK | VGRGGGDFDY | not detected | 0/3
GFTFVDVAMH | GISWNSGSIGYADSIK | VGRGGGYFDY | 0.55 | 3/3
GFTFDDYAMH | GISWNSGSAGYADSVK | VGMGGGYYDY | not detected | 0/3
GFTFEDYAMH | GISWNSGSIGYADSIK | VGRGGGYFDY | 0.79 | 3/3
GFTFQDYAMH | GISWNSGSIGYADSVK | VGRKGGYFDY | not detected | 0/3
GFVFDDYAMH | GISWNSGSIGYADSVK | CGRGGGYFDY | 0.98 | 3/3
GFTFDDYAMY | GISWNSGSIGYADQVK | VGRGGGYFDN | 0.45 | 3/3
GFTFDDYAMH | GISWNSGSIGYADSVE | VGRGIGYFDY | 4.82 | 2/3
GFTFDDYPMH | GISWNSGSIGYADSVK | VGRGMGYFDT | 4.66 | 1/3
GFTFDILAMH | GISWNSGSIGYADSVK | VSRGGGYFDY | 4.40 | 1/3
GFTFDDYAMH | GISWNSTSIMYADSVK | VGRGGGYFDT | not detected | 0/3
FFTFDDYAMH | GISWNSGSIGYADSVK | VGRAGGGFDY | not detected | 0/3
GFTFDNYAMH | GISWNSTSIGYADSVK | LGRGGGYFDY | 1.40 | 3/3
GFTFDDYARH | YISWNRGSIGYADSVK | VGRGGGYFDY | 4.65 | 1/3
GFTFDDYAMH | HISWNGGSIGYADSDK | VGRGGGYFDY | 3.93 | 1/3
GFTFDDYAMH | GISWNSGSIGYADMVK | VGRTGGYFAY | 4.98 | 3/3
GFTFDDVAMH | QISWNSGSIGYADSVK | VGRGGYYFDY | 4.72 | 1/3

Picked from the list: the 4 lowest averages where every replicate gave a value.

CDR-H1	CDR-H2	CDR-H3	mean log10 Kd (nM)	seen in
GFTFDDYAMH	GISWDSGSKGYADSVK	VGRGGGYFDL	0.06	3/3
GFTFDDYAMY	GISWNSGSIGYADQVK	VGRGGGYFDN	0.45	3/3
GFTFVDVAMH	GISWNSGSIGYADSIK	VGRGGGYFDY	0.55	3/3
GFTFEDYAMH	GISWNSGSIGYADSIK	VGRGGGYFDY	0.79	3/3

In this assay the parent's reference entry averaged 1.86; its copy inside this library read 0.88.